These are literature values, as cited in patent US8680142B2, “Ascorbate, vitamin K3 and hydroxytolans in the treatment of cancer” (Kent State University, priority 2007, dated 2014).

This data set has as its system Mice. The note with it: cited from earlier work.

Molecules are shown by their SMILES.

Take `CC1=CC(=O)c2ccccc2C1=O` [VK3, 2-methyl-1,4-naphthoquinone]: the “chronic toxicity (erythrocyte count, hemoglobin, growth curves)” value (mouse, in vivo, po, 250 mg/kg) was “did not affect either parameter”. Further, the mortality result (oral doses of 200 mg/Kg) was “No mortality”.
